Columns and labels:
[1] = target: T1, human MOR (Homo sapiens, UniProt P35372); assay: biochemical; assay type: binding
[2] = target: T1, human MOR; assay: biochemical
[3] = target: T2, human DOR (Homo sapiens, UniProt P41143); assay: biochemical; assay type: biochemical; conditions: for Potency, EC50 DOR: [35S]GTPγS stimulation, DNS = does not stimulate
[4] = target: T2, human DOR; assay: biochemical; assay type: binding
[5] = target: T3, human KOR (Homo sapiens, UniProt P41145); assay type: binding
[6] = target: T3, human KOR; assay: [35S]-GTPγS binding assay, CHO-KOR membranes; assay type: biochemical; conditions: for Potency, EC50 KOR: [35S]GTPγS stimulation, DNS = does not stimulate

COc1ccc(CN2CCCCC2)cc1CNC(=O)[C@@H](N)Cc1c(C)cc(O)cc1C.O=C(O)C(F)(F)F [B, (S)-3-(4-Hydroxy-2,6-dimethylphenyl)-1-((2-methoxy-5-(piperidin-1-ylmethyl)benzyl)amino)-1-oxopropan-2-aminium Trifluoroacetate]
Ki [1]: 7.5 ± 2.2 nM
EC50 [2]: 740 ± 330 nM
EC50 [3]: 143 ± 76 nM
Ki [4]: 41 ± 16 nM

Cc1cc(O)cc(C)c1C[C@H](N)C(=O)NCc1cccc(CN2CCc3ccccc3C2)c1.O=C(O)C(F)(F)F [E, (S)-1-((3-((3,4-Dihydroisoquinolin-2(1H)-yl)methyl)benzyl)amino)-3-(4-hydroxy-2,6-dimethylphenyl)-1-oxopropan-2-aminium Trifluoroacetate]
EC50 [3]: 490 ± 170 nM
Ki [4]: 4.8 ± 1 nM

Cc1cc(O)cc(C)c1C[C@H](N)C(=O)NCCCCCN1CCc2ccccc2C1.O=C(O)C(F)(F)F [I, (S)-1-((5-(3,4-Dihydroisoquinolin-2(1H)-yl)pentyl)amino)-3-(4-hydroxy-2,6-dimethylphenyl)-1-oxopropan-2-aminium Trifluoroacetate]
Potency, EC50 DOR ([3]; Table 5): DNS
Ki [4]: 142 ± 16 nM

Cc1cc(O)cc(C)c1C[C@H](N)C(=O)N1CCC(CCN2CCc3ccccc3C2)CC1.O=C(O)C(F)(F)F [L, (S)-1-(4-(2-(3,4-Dihydroisoquinolin-2(1H)-yl)ethyl)piperidin-1-yl)-3-(4-hydroxy-2,6-dimethylphenyl)-1-oxopropan-2-aminium Trifluoroacetate]
Potency, EC50 DOR ([3]; Table 5): DNS
Ki [4]: 130 ± 17 nM

Cc1cc(O)cc(C)c1C[C@H](N)C(=O)N1CCN(CCN2CCc3ccccc3C2)CC1.O=C(O)C(F)(F)F [M, (S)-1-(4-(2-(3,4-Dihydroisoquinolin-2(1H)-yl)ethyl)piperazin-1-yl)-3-(4-hydroxy-2,6-dimethylphenyl)-1-oxopropan-2-aminium Trifluoroacetate]
Ki [5]: 173 ± 20 nM
Potency, EC50 KOR ([6]; Table 5): DNS

Cc1cc(O)cc(C)c1C[C@H](N)C(=O)NCc1cc(CN2CCCCC2)ccc1OCC1CC1.O=C(O)C(F)(F)F [D, (S)-1-((2-(Cyclopropylmethoxy)-5-(piperidin-1-ylmethyl)benzyl)amino)-3-(4-hydroxy-2,6-dimethylphenyl)-1-oxopropan-2-aminium Trifluoroacetate]
Ki [1]: 6.5 ± 1.2 nM
Ki [5]: 325 ± 35 nM
EC50 [2]: 377 ± 63 nM
Potency, EC50 KOR ([6]; Table 2): DNS
EC50 [3]: 158 ± 68 nM
Ki [4]: 11.2 ± 4 nM

CCCOc1ccc(CN2CCc3ccccc3C2)cc1CNC(=O)[C@@H](N)Cc1c(C)cc(O)cc1C.O=C(O)C(F)(F)F [G, (S)-1-((5-((3,4-Dihydroisoquinolin-2(1H)-yl)methyl)-2-propoxybenzyl)amino)-3-(4-hydroxy-2,6-dimethylphenyl)-1-oxopropan-2-aminium Trifluoroacetate]
Ki [5]: 202 ± 18 nM
Potency, EC50 KOR ([6]; Table 2): DNS

Cc1cc(O)cc(C)c1C[C@H](N)C(=O)NCCOCCN1CCc2ccccc2C1.O=C(O)C(F)(F)F [J, (S)-1-((2-(2-(3,4-Dihydroisoquinolin-2(1H)-yl)ethoxy)ethyl)amino)-3-(4-hydroxy-2,6-dimethylphenyl)-1-oxopropan-2-aminium Trifluoroacetate]
Ki [1]: 0.64 ± 0.19 nM
Ki [5]: 45 ± 12 nM
EC50 [2]: 9.6 ± 3.1 nM
EC50 [6]: 1060 ± 180 nM
EC50 [3]: 243 ± 23 nM
Ki [4]: 113 ± 21 nM

CCCOc1ccc(CN2CCCCC2)cc1CNC(=O)[C@@H](N)Cc1c(C)cc(O)cc1C.O=C(O)C(F)(F)F [C, (S)-3-(4-Hydroxy-2,6-dimethylphenyl)-1-oxo-1-((5-(piperidin-1-ylmethyl)-2-propoxybenzyl)amino)propan-2-aminium Trifluoroacetate]
Ki [1]: 4.6 ± 0.2 nM
Ki [5]: 460 ± 170 nM
EC50 [2]: 183 ± 46 nM
Potency, EC50 KOR ([6]; Table 2): DNS
EC50 [3]: 117 ± 45 nM
Ki [4]: 20.1 ± 2.1 nM

Cc1cc(O)cc(C)c1C[C@H](N)C(=O)NCC(=O)N(C)CCN1CCc2ccccc2C1.O=C(O)C(F)(F)F [O, (S)-1-((2-((2-(3,4-Dihydroisoquinolin-2(1H)-yl)ethyl)(methyl)amino)-2-oxoethyl)amino)-3-(4-hydroxy-2,6-dimethylphenyl)-1-oxopropan-2-aminium Trifluoroacetate]
Ki [1]: 24 ± 11 nM
Ki [5]: 780 ± 570 nM
EC50 [2]: 568 ± 56 nM
Potency, EC50 KOR ([6]; Table 5): DNS
Potency, EC50 DOR ([3]; Table 5): DNS
Ki [4]: 24.7 ± 5 nM

Cc1cc(O)cc(C)c1C[C@H](N)C(=O)NCc1cccc(CN2CCCCC2)c1.O=C(O)C(F)(F)F [A, (S)-3-(4-Hydroxy-2,6-dimethylphenyl)-1-oxo-1-((3-(piperidin-1-ylmethyl)benzyl)amino)propan-2-aminium Trifluoroacetate]
Ki [5]: 82.8 ± 7.3 nM
Potency, EC50 KOR ([6]; Table 2): DNS
Potency, EC50 DOR ([3]; Table 2): DNS
Ki [4]: 143 ± 25 nM

Cc1cc(O)cc(C)c1C[C@H](N)C(=O)NCCOCC(=O)N1CCc2ccccc2C1.O=C(O)C(F)(F)F [K, (S)-1-((2-(2-(3,4-Dihydroisoquinolin-2(1H)-yl)-2-oxoethoxy)-ethyl)amino)-3-(4-hydroxy-2,6-dimethylphenyl)-1-oxopropan-2-aminium Trifluoroacetate]
Ki [1]: 1.28 ± 0.68 nM
Ki [5]: 12.5 ± 2.5 nM
EC50 [2]: 2.29 ± 0.37 nM
Potency, EC50 KOR ([6]; Table 5): DNS
Potency, EC50 DOR ([3]; Table 5): DNS
Ki [4]: 17.5 ± 5.7 nM

Cc1cc(O)cc(C)c1C[C@H](N)C(=O)NCC(=O)NCCN1CCc2ccccc2C1.O=C(O)C(F)(F)F [P, (S)-1-((2-((2-(3,4-Dihydroisoquinolin-2(1H)-yl)ethyl)amino)-2-oxoethyl)amino)-3-(4-hydroxy-2,6-dimethylphenyl)-1-oxopropan-2-aminium Trifluoroacetate]
Ki [1]: 1.32 ± 0.38 nM
Ki [5]: 107 ± 35 nM
EC50 [2]: 6 ± 1 nM
Potency, EC50 KOR ([6]; Table 5): DNS
EC50 [3]: 99 ± 16 nM
Ki [4]: 7.3 ± 1.5 nM

— paper PMC9923772 (ACS chemical neuroscience, 2020)
